One test addresses T1, Odc2p (Saccharomyces cerevisiae, UniProt Q99297).
T1 construct: made in house; host or cells: S. cerevisiae odc1Δodc2Δ (YPH499 background) carrying pYES2-based pODC2; purified from mitochondria on Ni-NTA agarose
T1 sequence (Q99297 1-307): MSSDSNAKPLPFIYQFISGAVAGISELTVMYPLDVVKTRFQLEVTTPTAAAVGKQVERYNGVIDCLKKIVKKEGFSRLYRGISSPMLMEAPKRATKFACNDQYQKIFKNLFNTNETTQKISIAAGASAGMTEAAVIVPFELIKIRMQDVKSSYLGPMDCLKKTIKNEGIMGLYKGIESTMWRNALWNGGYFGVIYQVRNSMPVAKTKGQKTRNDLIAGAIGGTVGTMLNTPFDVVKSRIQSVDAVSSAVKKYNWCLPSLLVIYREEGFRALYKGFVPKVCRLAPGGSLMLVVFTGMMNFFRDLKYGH
Description: Dependence on internal substrate of [14C]oxoglutarate uptake into proteoliposomes reconstituted with recombinant Odc2p. It is filed as biochemical. On the procedure: Reconstitution of the ODC proteins into liposomes—Purified ODC proteins were reconstituted by cyclic removal of the detergent with a hydrophobic column (13). The composition of the initial mixture used for reconstitution was: 200 μl of purified isoform (0.3-0.4 μg of protein), 70 μl of 10% Triton X-114, 100 μl of 10% phospholipids in the form of sonicated liposomes, 20 mM oxoglutarate (except where otherwise indicated), 10 mM Pipes (pH 7.0), 0.7 mg of cardiolipin (Sigma) and water to a final volume of 700 μl. […]
External substrate was removed from proteoliposomes on a Sephadex G-75 column preequilibrated with buffer F (50 mM NaCl and 10 mM PIPES, pH 7.0). […] The external radioactivity was removed on Sephadex G-75 and the internal radioactivity was measured. […] The initial rate of transport was calculated in mmol/min per g protein from the time course of isotope equilibration (13). […] For efflux measurements, the internal substrate pool of the proteoliposomes was made radioactive by carrier-mediated exchange equilibration (13) with 0.1 mM [^14C]oxoglutarate added at high specific radioactivity. After 60 min, the residual external radioactivity was removed by passing the proteoliposomes again through a column of Sephadex G-75. […]

For a further test, the target named is T2, Odc1p (Saccharomyces cerevisiae, UniProt Q03028).
T2 construct: made in house; host or cells: S. cerevisiae odc1Δodc2Δ (YPH499 background) carrying pYES2-based pODC1; purified from mitochondria on Ni-NTA agarose
T2 sequence (Q03028 1-310): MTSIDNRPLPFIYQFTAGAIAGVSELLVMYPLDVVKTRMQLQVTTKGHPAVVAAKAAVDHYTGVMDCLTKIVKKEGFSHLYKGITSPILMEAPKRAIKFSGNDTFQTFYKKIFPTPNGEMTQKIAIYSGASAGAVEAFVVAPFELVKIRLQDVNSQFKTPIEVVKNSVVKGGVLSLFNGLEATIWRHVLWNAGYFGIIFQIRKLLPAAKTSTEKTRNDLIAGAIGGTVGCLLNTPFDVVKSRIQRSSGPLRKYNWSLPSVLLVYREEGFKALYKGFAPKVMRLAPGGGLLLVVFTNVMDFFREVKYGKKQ
Description: Kinetic constants (Km, Vmax, Ki) of recombinant purified Odc1p in proteoliposomes. The format is biochemical. As to the method: External substrate was removed from proteoliposomes on a Sephadex G-75 column preequilibrated with buffer F (50 mM NaCl and 10 mM PIPES, pH 7.0). Transport at 25° C. was started by adding [^14C]oxoglutarate (unless otherwise indicated) to the proteoliposomes, and terminated by addition of 30 mM pyridoxal 5′-phosphate and 10 mM bathophenanthroline (the “inhibitor-stop” method (13)). In controls, inhibitors were added with the labelled substrate. The external radioactivity was removed on Sephadex G-75 and the internal radioactivity was measured. […] The initial rate of transport was calculated in mmol/min per g protein from the time course of isotope equilibration (13). […] For efflux measurements, the internal substrate pool of the proteoliposomes was made radioactive by carrier-mediated exchange equilibration (13) with 0.1 mM [^14C]oxoglutarate added at high specific radioactivity. After 60 min, the residual external radioactivity was removed by passing the proteoliposomes again through a column of Sephadex G-75. […]
The kinetic constants of the recombinant purified Odc1p and Odc2p were determined by measuring the initial transport rate at various external [^14C]oxoglutarate concentrations, in the presence of a constant saturating internal concentration of 20 mM oxoglutarate.
The values were calculated from Lineweaver-Burk plots of the rate of [^14C]oxoglutarate versus substrate concentrations. […]

Turning to `O=C(O)CCC(=O)C(=O)O` [2-Oxoglutarate], on Odc2p, the “[14C]oxoglutarate transport” value worked out at 27.8 mmol/min per g protein and the “[14C]oxoglutarate uptake with the internal substrate (in words)” value is given as “taken up efficiently”.
Usually Ki stands for the equilibrium dissociation constant of an inhibitor or competing ligand from its target. Regarding `O=C(O)CC(C(=O)O)C(O)C(=O)O` [L-Isocitrate], the Ki at Odc1p was greater than 15 mM.

The record behind these values is patent publication US20020155192A1, “Yeast transport isoforms” (priority 2000, published 2002).
